Assay results: patent US20200392084A1 (priority 2017, published 2020)

Tests used:
[1] = Dynamic Vapor Sorption (DVS)
[2] = Salt disproportionation studies; conditions: slurried in deionised water, ambient temperature, ca. 24 hrs
[3] = Primary salt screen stability stress test 40° C./75% RH ca. 48 hours; conditions: primary screen solid from acetone

Substance: sulfasalazine triethanolamine (1:1) salt
- XRPD pattern after DVS analysis [1]: unchanged
- hygroscopicity by DVS isotherm plot [1]: moderately hygroscopic
- DVS mass uptake ([1]; at 90% RH, 25° C., listed as salt from triethanolamine): 3.9%
- Salt disproportionation, XRPD [2]: Amorphous
- XRPD pattern after stability stress test [3]: same XRPD pattern
